Literature values as cited in patent US20050255458A1, “Drug discovery assays based on the biology of chronic disease” (priority 2002, published 2005).
Read-outs that look alike come from different tables or passages of the source.

Legend:
PTP1B = target: T1, PTP1B (Homo sapiens, UniProt P18031); settings: Huyer 1997; cited from earlier work
T1 sequence (P18031 1-435): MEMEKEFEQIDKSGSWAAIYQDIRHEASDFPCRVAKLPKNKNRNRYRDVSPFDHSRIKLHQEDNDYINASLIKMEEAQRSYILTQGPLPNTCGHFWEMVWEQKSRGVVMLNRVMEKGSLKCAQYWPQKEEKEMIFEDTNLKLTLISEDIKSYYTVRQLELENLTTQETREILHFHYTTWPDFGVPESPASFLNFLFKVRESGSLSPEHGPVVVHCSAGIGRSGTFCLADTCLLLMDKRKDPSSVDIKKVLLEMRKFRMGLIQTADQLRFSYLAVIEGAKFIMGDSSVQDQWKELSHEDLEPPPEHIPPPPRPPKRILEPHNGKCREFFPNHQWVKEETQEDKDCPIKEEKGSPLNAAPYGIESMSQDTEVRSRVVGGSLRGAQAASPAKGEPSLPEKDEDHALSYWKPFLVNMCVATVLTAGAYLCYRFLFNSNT

TF = settings: 24 hours; cited from earlier work
[1] = system: B7-CD28/CD152 costimulatory pathway; settings: four intravenous infusions, 26-wk; cited from earlier work
ERK = settings: cited from earlier work
AR gene = settings: cited from earlier work

Molecule: [O]=[V]([O-])([O-])[O-] [vanadate, Vanadate (VO4^−3)]
- PTP1B activity (PTP1B): inhibition

Molecule: AGE-alb: advanced glycation end products albumin
- TF mRNA (TF): increase in TF mRNA

Molecule: CTLA4Ig: soluble chimeric protein CTLA4Ig (BMS-188667)
- clinical outcome in psoriasis vulgaris [1]: Clinical improvement

Molecule: FSH: follicle-stimulating hormone
- ERK phosphorylation (ERK; Sertoli cells, 19-day-old rats, 100 ng/ml, 15 minutes): inhibition of ERK phosphorylation
- ERK phosphorylation (ERK; oocytes and granulosa cells, dose dependent): stimulates ERK phosphorylation
- transcription rate of AR endogenous gene (run-on) (AR gene; 2-4 hours treatment): no marked changes
- AR mRNA (AR gene; Sertoli cells, 21 day old rats, 500 ng/ml, 60 minutes): increase in AR mRNA
